Test results from ChEMBL document CHEMBL1134215, “Influence of chain length and N-alkylation on the selective serotonin receptor ligand 9-(aminomethyl)-9,10-dihydroanthracene” (Bioorg Med Chem Lett, 2001).

Target: T1, 5-hydroxytryptamine receptor 2C (Mus musculus, UniProt P34968)
T1 sequence (P34968 whole entry): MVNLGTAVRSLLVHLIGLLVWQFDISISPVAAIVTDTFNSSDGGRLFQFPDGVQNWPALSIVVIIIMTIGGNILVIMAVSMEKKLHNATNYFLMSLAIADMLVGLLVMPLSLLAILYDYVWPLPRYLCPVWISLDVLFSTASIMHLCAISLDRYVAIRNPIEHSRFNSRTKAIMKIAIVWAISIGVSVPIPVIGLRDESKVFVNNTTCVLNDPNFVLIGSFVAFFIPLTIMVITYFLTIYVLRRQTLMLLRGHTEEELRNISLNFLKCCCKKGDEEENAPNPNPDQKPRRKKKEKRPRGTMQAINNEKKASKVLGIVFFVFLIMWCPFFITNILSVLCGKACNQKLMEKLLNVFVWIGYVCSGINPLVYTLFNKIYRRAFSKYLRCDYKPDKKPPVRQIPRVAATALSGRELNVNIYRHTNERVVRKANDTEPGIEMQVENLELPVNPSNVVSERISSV
Test: Binding affinity to 5-hydroxytryptamine 2C receptor using [3H]Mesulergine as radioligand in stably transfected NIH3T3 cells
Format: cell-based

CN(C)CCCN1c2ccccc2CCc2ccccc21 [IMIPRAMINE]
Ki: 160 nM
